Reference: ChEMBL document CHEMBL4765241, “Identification and Preclinical Pharmacology of ((1 R,3 S)-1-Amino-3-(( S)-6-(2-methoxyphenethyl)-5,6,7,8-tetrahydronaphthalen-2-yl)cyclopentyl)methanol (BMS-986166): A Differentiated Sphingosine-1-phosphate Receptor 1 (S1P) Modulator Advanced into Clinical Trials” (J Med Chem, 2019)

Sequences of proteins named here, by UniProt entry; tags and fusion partners are left off.
UniProt P21453, whole entry: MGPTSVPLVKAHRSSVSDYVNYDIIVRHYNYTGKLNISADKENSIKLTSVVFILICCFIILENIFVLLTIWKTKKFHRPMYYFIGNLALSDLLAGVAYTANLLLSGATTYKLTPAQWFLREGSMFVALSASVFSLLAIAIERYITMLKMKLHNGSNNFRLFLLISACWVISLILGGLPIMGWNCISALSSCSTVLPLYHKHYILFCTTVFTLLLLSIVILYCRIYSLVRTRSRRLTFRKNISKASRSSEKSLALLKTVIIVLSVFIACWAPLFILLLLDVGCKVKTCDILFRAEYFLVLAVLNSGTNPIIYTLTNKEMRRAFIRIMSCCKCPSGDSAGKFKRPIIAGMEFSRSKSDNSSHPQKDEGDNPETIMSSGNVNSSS

Experiments:
[1] = target: T1, Sphingosine 1-phosphate receptor 1 (Homo sapiens, UniProt P21453); assay: Displacement of [33P]-SIP from human recombinant S1P1 expressed in CHO cell membranes measured after 45 mins by radioligand competitive binding analysis; set-up: species or system Cell membrane
[2] = target: T1, Sphingosine 1-phosphate receptor 1
[3] = target: T1, Sphingosine 1-phosphate receptor 1; remark: listed apart in the source
[4] = target: T1, Sphingosine 1-phosphate receptor 1; remark: listed apart in the source

COc1ccccc1CC[C@@H]1CCc2cc([C@H]3CC[C@](N)(COP(=O)(O)O)C3)ccc2C1
IC50 [1]: 14 pM | EC50 [2]: 3500 pM | EC50 [3]: 8 pM | EC50 [4]: 110 pM
